The text below walks through data of patent publication US20250163052A1, “cGAS INHIBITORS AND USES THEREOF” (Cornell University, priority 2022, published 2025).

The series is described as follows: Metabolic stability in human liver microsomes. A general note: Liver microsomes are a subcellular fraction often used to study metabolism.

With `C[C@]12CC[C@H]3[C@@H](CCC4=CC(=O)CC[C@@]43C)[C@@H]1CC[C@@H]2O` [Testosterone, reference compound], the “T½” value was determined as 12.7 min.
